Assay results reported in patent publication US10196693B2, “Method for predicting response to breast cancer therapeutic agents and method of treatment of breast cancer” (MEDIVATION PROSTATE THERAPEUTICS, LLC, priority 2014, dated 2019).

Tested on: androgen receptor-positive (AR+) triple-negative breast cancer
Test: Clinical trial of enzalutamide in patients with AR+ triple-negative breast cancer
Type: in vivo, human

CNC(=O)c1ccc(N2C(=S)N(c3ccc(C#N)c(C(F)(F)F)c3)C(=O)C2(C)C)cc1F [enzalutamide, 4-(3-(4-cyano-3-(trifluoromethyl)phenyl)-5,5-dimethyl-4-oxo-2-thioxoimidazolidin-1-yl)-2-fluoro-N-methylbenzamide]
median overall survival (mOS) (160 mg/day oral, PR-AR DX+ (score > −0.25), at 84 weeks): not yet reached | median overall survival (mOS) (160 mg/day oral, PR-AR DX− (score <= −0.25)): 32.1 weeks | median progression-free survival (mPFS) (160 mg/day oral, patients meeting signature, Weighted Basal and Luminal A classifier score > −0.25 (PR-AR DX+)): 16.1 weeks | median progression-free survival (mPFS) (160 mg/day oral, patients not meeting signature, score <= −0.25 (PR-AR DX−)): 8.1 weeks | Clinical Benefit Rate at ≥24 weeks (CBR24) (Basal Centroid classifier score <0.6, 1st line and 2nd line patients): 60% | Clinical Benefit Rate at ≥24 weeks (CBR24) (patients with Basal Centroid classifier score <0.6 (Novel DX+)): 42% | median progression-free survival (mPFS) (patients with zero to one prior therapies, PR-AR DX+ (score > −0.25), to 64 weeks): 40.4 weeks | median progression-free survival (mPFS) (patients with zero to one prior therapies, PR-AR DX− (score <= −0.25), to 64 weeks): 8.9 weeks
